Structures are written as SMILES.

The assay is filed under the species Homo sapiens. Kind of assay: Selectivity ratio of Ki for human CB2 to Ki for human CB1.
On to `Cc1nc(CN2CCN(c3ncnc4c3nc(-c3ccccc3Cl)n4-c3ccc(Cl)cc3)CC2)no1`, for which the Ratio Ki amounted to 150.

`Cc1c(CN2CCN(c3ncnc4c3nc(-c3ccccc3Cl)n4-c3ccc(Cl)cc3)CC2)cnn1C`: the Ratio Ki turned out to be 120.

In the case of `Clc1ccc(-n2c(-c3ccccc3Cl)nc3c(N4CCN(Cc5ccncc5)CC4)ncnc32)cc1`, the Ratio Ki was determined as 77.
